The inhibition is the drop in the measured response relative to a control, in per cent.

By UniProt entry, the sequences of proteins in these tests, tags left out.
UniProt P02675, whole entry, looked up: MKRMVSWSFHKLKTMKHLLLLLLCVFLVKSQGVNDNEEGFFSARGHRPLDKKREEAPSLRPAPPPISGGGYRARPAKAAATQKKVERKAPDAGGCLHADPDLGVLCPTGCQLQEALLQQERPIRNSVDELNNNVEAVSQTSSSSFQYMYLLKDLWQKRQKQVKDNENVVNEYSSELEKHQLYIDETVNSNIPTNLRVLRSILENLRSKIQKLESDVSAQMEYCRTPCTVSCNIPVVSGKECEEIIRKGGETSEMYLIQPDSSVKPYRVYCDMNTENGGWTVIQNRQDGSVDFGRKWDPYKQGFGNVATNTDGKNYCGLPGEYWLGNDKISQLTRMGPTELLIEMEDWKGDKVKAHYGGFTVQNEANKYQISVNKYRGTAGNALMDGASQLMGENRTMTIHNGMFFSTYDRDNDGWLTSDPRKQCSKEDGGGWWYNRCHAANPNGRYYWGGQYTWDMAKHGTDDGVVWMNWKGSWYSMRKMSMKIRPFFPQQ

Molecules are shown by their SMILES. Only a part is listed here, and it is no random draw. Some tests of the compounds listed are not included; inactive here does not mean inactive elsewhere. Active and inactive are the calls of the source.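 How the source made its calls: active means inhibition above the mean of compounds falling within the control limits plus 3 SD of them (cut at about 14% in these data); inactive means the rest.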

The target in this test is Fibrinogen beta chain (Homo sapiens) (UniProt P02675). In words: inhibitors of Tn7 peptide binding to fibrin DD(E), primary screen, biochemical, fluorescence polarization, human fibrin, Tn7 probe (AID 720508).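 Further: 0% = plate median of compound wells and 100% = 10 µM Aha-Tn7 peptide.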 To be noted: FP displacement of FITC-Tn7 peptide from fibrin DD(E); at 8.3 µM; stronger effect = higher value; 0% = median of compound wells per plate.
`O=C(NCC1(N2CCCCC2)CCCCC1)c1cccc(Cl)c1`: the inhibition is inactive: 0.72%. As for `COc1ccc(Cl)cc1C(=O)NCC1(N(C)C)CCCCC1`, the inhibition is inactive: 1.41%. For `COc1cccc(C(=O)NCC2(N3CCCCC3)CCCCC2)c1` the value was inactive: -7.8%; for `COc1cc(C(=O)NCC2(N(C)C)CCCCC2)c([N+](=O)[O-])cc1OC`, inactive: 2.55%; for `CN(C)C1(CNC(=O)c2ccc(Br)cc2)CCCCC1`, inactive: -2.71%.

As for `CN(C)c1cccc(C(=O)NCC2(N(C)C)CCCCC2)c1`, the inhibition is inactive: 8.12%. `O=C(OCCN1CCCC1)C(O)(c1ccccc1)c1ccccc1`: the inhibition is inactive: -0.61%. For the compound `CC(C)Oc1ccc(C(=O)NCC2(N(C)C)CCCCC2)cc1`, the inhibition was inactive: 0.9%.

For the compound `COc1ccc(Br)c(C(=O)NCC2(N3CCCCC3)CCCCC2)c1`, the inhibition was inactive: 1.33%. On to `C=C(C)C#CC(O)(C(=O)OC1CCN(C)CC1)c1ccccc1` (stereo unspecified), for which the inhibition was inactive: 0.29%. `O=C(OC1CN2CCC1CC2)C(CO)(c1ccccc1)c1ccccc1` (stereo unspecified): the inhibition is inactive: 2.09%.

With `Cc1ccc(C(=O)NCC2(N3CCCCC3)CCCCC2)cc1`, the inhibition is inactive: 2.14%. For the compound `CC(C)N1C(=O)CC2(CCN(CCOC(=O)C(O)(c3ccccc3)c3ccccc3)CC2)C1=O`, the inhibition was inactive: 3.3%. Consider `COc1cc(SC)ccc1C(=O)NCC1(N(C)C)CCCCC1`, for which the inhibition is inactive: 0.96%. Turning to `CCN(CC)CC(C)C(C)OC(=O)C(O)(c1ccccc1)c1ccccc1` (stereo unspecified), the inhibition is inactive: -3.93%. `CN1[C@@H]2CC[C@H]1CC(OC(=O)C(O)(c1ccccc1)c1ccccc1)C2` (stereo partly specified): the inhibition was inactive: -5.06%. With `O=C(NCC1(N2CCCCC2)CCCCC1)c1cc([N+](=O)[O-])ccc1Cl`, the inhibition is inactive: 3.18%.

As for `O=C(NCC1(N2CCCCC2)CCCCC1)c1cccc(Br)c1`, the inhibition was inactive: 3.86%. For the compound `CCN1CCCC(OC(=O)C2(O)c3ccccc3C=Cc3ccccc32)C1` (stereo unspecified), the inhibition is inactive: 1.3%. For `Cc1cc(C(=O)NCC2(N3CCCCC3)CCCCC2)ccc1[N+](=O)[O-]` the value was inactive: -5.16%. The result for `COc1ccc(C(=O)NCC2(N(C)C)CCCCC2)cc1` reads inactive: 3.82%; that for `O=C(NCC1(N2CCCCC2)CCCCC1)c1cc(F)c(F)cc1Cl`, inactive: -1.92%; that for `C=CCN1CCN(CCOC(=O)C(O)(c2ccccc2)c2ccccc2)CC1`, inactive: -4.66%. For `CN(C)c1ccc(C(=O)NCC2(N(C)C)CCCCC2)cc1` the value was inactive: -6.59%; for `CN(C)C1CCCC1OC(=O)C(O)(c1ccccc1)c1ccccc1` (stereo unspecified), inactive: 0.42%.

Regarding `Cc1ccccc1C(=O)NCC1(N2CCCCC2)CCCCC1`, the inhibition is inactive: -7.86%.
